Our source for the HER2 level % of control values is PubChem BioAssay AID645 (SRMLSC, 2007).

This is a selection; strong and weak results do not stand in their true shares. Calls of active or inactive are those of the source.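 Rule for the calls: active = HER2 level under 5% of the carrier-only control; inconclusive = no clear call, values can overlap the other calls; inactive = the rest.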

The test has as its target Receptor tyrosine-protein kinase erbB-2 (Homo sapiens) (UniProt P04626). The experiment in a line: reducers of endogenous HER2 protein levels – SKBR-3 cells, AlphaScreen, 66K library, primary screen (AID 645).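 Note: 100% = DMSO carrier and 0% = 500 nM PU-H71 HSP90 inhibitor; lower value means stronger loss of Her2 protein.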 To be noted: SKBR-3 HER2 protein level, 18-24 h, at 10 µM, stronger effect = lower value. On the technique in general: Alpha assays give light when donor and acceptor beads are brought close together.
On to `CCc1nc2c(n1)c1c(non1O)c1c2no[n+]1[O-]`, for which the HER2 level % of control was active: -16.9%.
Consider `Cc1c2non([O-])c-2c(C)[n+](=O)[n+]1[O-]`, for which the HER2 level % of control was inactive: 63.3%.
Under `O=P1(Nc2nc3ccc(Cl)cc3s2)COc2ccccc2O1` (stereo not given) stands inactive: 82.5%; under `COC(=O)c1cc2c(s1)N=C(c1ccccc1)N(C)P2(=O)N1CCOCC1` (stereo not given), inactive: 97.8%.
Under `O=C(OC1CN2CCC1CC2)c1cccc(Cl)c1` (stereo not given) stands inactive: 104%; under `c1nnnn1CCn1cnnn1`, inactive: 96.5%; under `O=P(Nc1nccs1)(c1ccccc1)c1ccccc1`, inactive: 91.6%.
On to `Clc1n[nH]nc1-c1nn[nH][15n]1`, for which the HER2 level % of control is inactive: 119%.
`O=P1(Nc2ccccn2)COc2ccccc2OC1`: the HER2 level % of control is inactive: 74%.
Under `Cc1nn(-c2ccccc2)c2c1P(=O)(N1CCOCC1)N(C)C(c1ccccc1)=N2` (stereo not given) stands inactive: 123%; under `Cc1ccc(OCC(=O)OC2CN3CCC2CC3)cc1` (stereo not given), inactive: 136%; under `O=P1(Nc2ccc(Br)cn2)COc2ccccc2OC1`, inactive: 95.1%.
Consider `O=P1(Nc2ncccn2)COc2ccccc2OC1`, for which the HER2 level % of control is inactive: 85.2%.
For `CCOP1(=S)c2c(C)nn(CCC#N)c2N=C(c2ccccc2F)N1C` (stereo not given), the HER2 level % of control is inactive: 96.8%.
As for `O=P(Nc1nccs1)(c1ccccc1)c1nc2ccccc2s1` (stereo not given), the HER2 level % of control is inactive: 116%.
As for `CCOP1(=S)c2c(C)nn(CCC#N)c2N=C(c2ccc(F)cc2)N1C` (stereo not given), the HER2 level % of control is inactive: 128%.
Under `Cc1cccc(OCC(=O)OC2CN3CCC2CC3)c1` (stereo not given) stands inactive: 110%; under `O=C(OC1CN2CCC1CC2)C12CC3CC(CC(C3)C1)C2` (stereo not given), inactive: 97.5%; under `O=C(COc1ccccc1)OC1CN2CCC1CC2` (stereo not given), inactive: 74.8%.
Under `COP1(=S)c2c(C)nn(CCC#N)c2N=C(c2ccc(F)cc2)N1C` (stereo not given) stands inactive: 110%.
